Values quoted from earlier work in paper PMC4358770 (Journal of medicinal chemistry, 2010).

By UniProt entry, the sequences of proteins in these tests, tags left out. Residues count along the entry.
UniProt P19111, 20-533: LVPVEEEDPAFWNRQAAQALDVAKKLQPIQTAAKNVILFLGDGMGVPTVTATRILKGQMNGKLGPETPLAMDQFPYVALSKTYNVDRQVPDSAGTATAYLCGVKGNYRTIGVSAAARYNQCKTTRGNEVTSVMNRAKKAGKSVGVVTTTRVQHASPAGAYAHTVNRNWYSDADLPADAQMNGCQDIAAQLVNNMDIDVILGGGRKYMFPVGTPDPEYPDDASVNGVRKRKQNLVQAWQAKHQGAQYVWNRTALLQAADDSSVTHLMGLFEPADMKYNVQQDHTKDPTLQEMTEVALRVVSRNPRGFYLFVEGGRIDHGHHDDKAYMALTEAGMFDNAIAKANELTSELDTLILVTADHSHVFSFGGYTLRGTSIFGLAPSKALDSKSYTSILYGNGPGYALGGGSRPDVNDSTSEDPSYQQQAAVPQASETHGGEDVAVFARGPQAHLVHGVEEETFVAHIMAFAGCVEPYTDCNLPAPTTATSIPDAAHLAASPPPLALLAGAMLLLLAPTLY

Molecular target: calf intestine alkaline phosphatase (Bos taurus, UniProt P19111)
Details: cited from earlier work

2-MeS-α-borano-ATP (A-isomer) [analogue 4A]
amount remaining with alkaline phosphatase (after 100 min): only traces | hydrolysis by alkaline phosphatase (within 12 min at 37 °C): 60%
